Data on one substance can be found in patent US9561197B2 (Horizon Therapeutics, LLC, priority 2012, dated 2017).

Like-named read-outs stand apart in the source and are kept apart here.

The conditions of data set [1]: adult UCD, Study HPN-100-006; between maximum and minimum concentration.
Where [2] appears, read: Patient 4, NaPBA 6 g/day for one week.

sodium phenylbutyrate [NaPBA] came in with a PAA (Patient 4 (person one), NaPBA 4 g per day) of 110 µg/L. Under “Patient 4, NaPBA 4 g per day”, the “PAA:PAGN ratio” value turned out to be 1.2 and the PAGN came out at 85 µg/L. Also, under setting [2], the PAA stood at 155 µg/L, the “PAA:PAGN ratio” value is on record as 1.4 and the PAGN amounted to 110 µg/L. Further, the “fluctuation index for PAA over a 24 hour period” value in data set [1] stood at 2150%.
